From patent US20060293384A1, “Isethionyl nitrates and compounds thereof” (published 2006)

Key:
human organism [1] = assay: self-administration under the tongue, symptoms and duration of vasodilatory effect; settings: inventor themself
human organism [2] = assay: self-administration of taurine against arrhythmias; settings: inventor themself

In the case of isethionic nitrate, the “temperature at which the material begins to discolor when heated” value (discoloration on heating) is reported as “about 70 degrees C”, the “symptoms when placed under the tongue” value (human organism [1]; diluted in approximately 100 times its volume of 190 proof grain alcohol, sublingual) is reported as “promptly caused the same symptoms as a small amount of glyceryl trinitrate” and the duration of effect (human organism [1]; sublingual) is reported as “about 1 hour”.
For `O=[N+]([O-])OCC(CO[N+](=O)[O-])O[N+](=O)[O-]`, the “duration of similar effect” value (human organism [1]) was 7 to 8 min and the “maximum duration of similar effect” value (human organism [1]) was no more than 15 min.
With `NCCS(=O)(=O)O` the effect on arrhythmias (human organism [2]; 250 mg of taurine in conjunction with magnesium and calcium) was “arrhythmias could be alleviated wholly” and the recurrence of arrhythmia (human organism [2]; one 250 mg tablet of taurine on a weekly basis) was “have not suffered such arrhythmia for several years”.
